## Apparent affinities of Ab-14 variants for a coronavirus HR2 peptide

From the AlphaSeq antibody data of Li et al. 2023 (doi:10.1038/s41467-023-39022-2), copy in the FLAb collection.

Target: peptide PDVDLGDISGINAS, taken from heptad repeat 2 (HR2) of SARS-CoV-2 spike.

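The starting antibody came from a phage panning campaign against this peptide. These sequences belong to a second round, designed from the earlier measurements on random variants of the parent. Group labels follow the data file (Ctrl: baseline library sampled from a position-specific scoring matrix, with some repeated check sequences; Rand: our label for a block that the file lists under HC and that is probably the random mutants of the ten best first-round binders; GP: Gaussian process model; HC: hill climbing; Gen: genetic algorithm; Gibbs: Gibbs sampling; a sequence that several methods proposed may carry one label only). The assay is AlphaSeq: two haploid yeast populations carry antibody and antigen on their surface. After mating in shaken culture at 30 °C for 16 h, diploids were selected and their barcode pairs sequenced. Scores were corrected for input abundance and mapped to Kd with protein pairs of known affinity run in the same pool. The assay was run in six technical replicates.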

Ab-14 is the parent antibody, in scFv form: VH, then a (GGGGS)3 linker, then VL. The heavy chain is unchanged in all variants.
VH: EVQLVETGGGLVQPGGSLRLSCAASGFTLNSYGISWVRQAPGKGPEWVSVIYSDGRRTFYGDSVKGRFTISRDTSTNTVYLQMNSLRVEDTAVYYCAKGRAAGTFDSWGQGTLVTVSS
VL: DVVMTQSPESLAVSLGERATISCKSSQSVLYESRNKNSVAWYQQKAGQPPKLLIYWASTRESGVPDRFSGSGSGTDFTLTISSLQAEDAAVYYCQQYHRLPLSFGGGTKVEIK

The parent's light chain CDRs are KSSQSVLYESRNKNSVA, WASTRES, QQYHRLPLS; each variant's own CDRs replace them letter for letter. This list holds designs with at most six substitutions. Values are apparent Kd, the geometric mean of the replicates that gave a signal; lower means stronger binding. Where no diploid with the target was found in any replicate, the entry reads "nd": below detection, most likely a poor binder, though not proof of it. A sequence measured in both rounds can read differently, since the two assays cover different ranges. The authors averaged sequences with at least three values out of six and counted those with two or fewer as poor binders. The parent sequence was in this pool as ten entries: three were never detected, three once, and four in most replicates, with averages from 2.2 nM to 240 nM. Background: pairings of all light chain designs with three empty control strains gave a value in 4% of cases (median 430 nM, 5th percentile 38 nM). Values in that range, when seen in few replicates, are hard to tell from nonspecific mating. Also given: how often the same scFv was detected with the empty control strains.

- KSSISWLYESRNTNSVA | EASTRES | QQYHRLPLS [GP_HC] = 530 pM (6 of 6 replicates; controls 0 of 18)
- KQSQSDLYESRNKNAVA | DASTRES | QMYHWLPLS [GP_HC] = 41 nM (6 of 6 replicates; controls 0 of 18)
- KVRQSTQYESRNKNSVA | WASTRES | QQYHRLPLS [GP_HC] = 28 nM (6 of 6 replicates; controls 1 of 18)
- HLSQSWLYESRNKNSVA | NASQRES | QQYHRLPLS [GP_Gen] = 460 pM (6 of 6 replicates; controls 0 of 18)
- KVSQSVLYESRMKNSVA | NASTRCS | QQYHRLPLE [GP_HC] = 1.6 nM (6 of 6 replicates; controls 2 of 18)
- ASSISVLYESRNKNSVA | WASTRES | MQYHRLPLH [Ctrl] = nd (0 of 6 replicates; controls 0 of 18)
- KFSQSVLYESRNKNSVA | WASKRES | QQYHRLPLS [Ctrl] = 26 nM (6 of 6 replicates; controls 0 of 18)
- KLRMSTLYESRNKNSVA | DASTRES | QQYHRLPLS [GP_HC] = 620 pM (6 of 6 replicates; controls 0 of 18)
- KQSQSFLNESRNKNSVA | DANTRES | QQYHRLPLS [GP_HC] = 3.0 nM (6 of 6 replicates; controls 0 of 18)
- KVSQSELGESRNKMSVA | NASTREK | QQYHRLPLS [GP_Gibbs] = 2.1 nM (6 of 6 replicates; controls 3 of 18)
- KLSASVGYEDRNKNSVA | WASTRES | QQYHRLPLS [Ctrl] = 2.4 nM (6 of 6 replicates; controls 1 of 18)
- KLQQSPLYESRNKNSVA | NASTRMS | QQYHRLPLS [GP_Gen] = 370 pM (6 of 6 replicates; controls 0 of 18)
- KLSASQLYWSRNKNSVA | QASTRET | QQYHRLPLS [GP_Gibbs] = 1.9 nM (6 of 6 replicates; controls 1 of 18)
- KVQQSVWYESRNKNSVA | EASTRES | QQYHRLPLS [GP_Gen] = 2.2 nM (6 of 6 replicates; controls 2 of 18)
- KISQSWIYESRNKNSVA | GASTRES | QQYHRLPLS [GP_HC] = 520 pM (6 of 6 replicates; controls 1 of 18)
- KLSQSELYESRNKNSVA | MASQRES | QQYHRLPLS [GP_Gen] = 1.6 nM (6 of 6 replicates; controls 1 of 18)
- KSSQSVLYESRNKNSVA | SASTRVS | QQYHRLPLS [Ctrl] = 24 nM (6 of 6 replicates; controls 1 of 18)
- HSSISVAYESRNKNSVA | NASTRES | QQYHRLPLS [GP_HC] = 3.6 nM (6 of 6 replicates; controls 0 of 18)
- KFSRSVLYESRTKSSVD | NASTRES | QQYHRLPLS [Rand] = nd (0 of 6 replicates; controls 0 of 18)
- KSSISGLYESRNKNSVA | EASTREQ | QQYHRLPLS [GP_HC] = 1.5 nM (6 of 6 replicates; controls 0 of 18)
- KHSQSVLYESRNKNNVA | DASTRES | QQYHRLPLS [GP_Gen] = 560 pM (6 of 6 replicates; controls 1 of 18)
- KQSTSVLYESVNKNSVA | DASTRES | QQYHRLPLS [GP_HC] = 2.1 nM (6 of 6 replicates; controls 1 of 18)
- KLSQSFLMESRNKNSVA | NASTRES | QQYHRLPLS [GP_Gen] = 470 pM (6 of 6 replicates; controls 1 of 18)
- KVSQSFLYESRNKNAVA | NASTRES | QQYHRLPLS [GP_Gen] = 450 pM (6 of 6 replicates; controls 3 of 18)
- KLSQSQDYESRNKNSVA | NASTRLS | QQYHRLPLS [GP_Gen] = 560 pM (6 of 6 replicates; controls 0 of 18)
- YLSQSVLYESRNKNSVA | NASTREA | QQYHRLPLM [GP_Gibbs] = 730 pM (6 of 6 replicates; controls 0 of 18)
- KVSQSVLYESRDKNSVA | DASTRCS | QQYHRLPLS [GP_HC] = 780 pM (6 of 6 replicates; controls 0 of 18)
- KSSESVLYESNNKNSVA | HASTRED | QQYHRLPLS [GP_HC] = 4.8 nM (6 of 6 replicates; controls 1 of 18)
- KLSQSVLYESRNKNSVA | QASTRSS | QQYHRLPLS [GP_Gen] = 700 pM (6 of 6 replicates; controls 2 of 18)
- LLPQSMEYESRNKNSVA | AASTRES | QQYHRLPLS [GP_Gibbs] = 1.2 nM (6 of 6 replicates; controls 0 of 18)
- KSSQSVLYESRNSNSVA | NASTRES | QQYHRLPLS [Ctrl] = 4.1 nM (6 of 6 replicates; controls 4 of 18)
- KSSQSVDYESVNKNSVA | WASTRES | CQYHRLPLS [Ctrl] = 15 nM (5 of 6 replicates; controls 0 of 18)
- KLSGSMLYESRNKNSVA | NASTRLS | QQYHRLPLS [GP_Gen] = 380 pM (6 of 6 replicates; controls 1 of 18)
- KSSQSHLPESRNKNSVA | DASTRES | QQYHRLPLS [Ctrl] = 1.0 nM (6 of 6 replicates; controls 4 of 18)
- KFSQSVLYESRVKNSVA | NAVTRET | QQYHRLPLS [GP_HC] = 580 pM (6 of 6 replicates; controls 2 of 18)
- KLQQSVLYESRNPNSVA | NASTRMS | QQYHRLPLS [GP_Gen] = 950 pM (6 of 6 replicates; controls 1 of 18)
- KSQQSDLYESRNKNSVA | WASTRVS | QQYKRLPLS [Ctrl] = 19 nM (6 of 6 replicates; controls 0 of 18)
- KSLESWLYESRNKNSVA | HASTREQ | QQYHRLPLS [GP_HC] = 3.5 nM (6 of 6 replicates; controls 0 of 18)
- KLSQSVLYESRNKNSVA | NASTRES | QAYHRLPLS [GP_Gen] = 2.3 nM (6 of 6 replicates; controls 0 of 18)
- KSCQSVLLESYNKTSVA | WASTRES | QQYHRLPLS [Ctrl] = 180 nM (5 of 6 replicates; controls 0 of 18)
- KSSQSFLYEERYKNSVA | KASTRES | QQYHRLPLS [Ctrl] = 12 nM (6 of 6 replicates; controls 1 of 18)
- KSSQDVLYPSRYWNSVA | AASTRES | QQYHRLPLS [Ctrl] = 2.7 nM (6 of 6 replicates; controls 0 of 18)
- KSSQSELYESRNFNSVA | DASTRES | QQYHRLPLS [GP_HC] = 1.4 nM (6 of 6 replicates; controls 1 of 18)
- KSSQEVLYESRNKNSVA | WASTRES | QQYHRLPNS [Ctrl] = nd (0 of 6 replicates; controls 0 of 18)
- KSSQSVLREGGNGNSVA | EASTRES | QQYHLLPLS [Ctrl] = 8.9 nM (6 of 6 replicates; controls 0 of 18)

Picked from the list: the 5 lowest averages where every replicate gave a value.

| CDR-L1 | CDR-L2 | CDR-L3 | group | Kd | replicates with signal | control signals |
|---|---|---|---|---|---|---|
| KLQQSPLYESRNKNSVA | NASTRMS | QQYHRLPLS | GP_Gen | 370 pM | 6 of 6 | 0 of 18 |
| KLSGSMLYESRNKNSVA | NASTRLS | QQYHRLPLS | GP_Gen | 380 pM | 6 of 6 | 1 of 18 |
| KVSQSFLYESRNKNAVA | NASTRES | QQYHRLPLS | GP_Gen | 450 pM | 6 of 6 | 3 of 18 |
| HLSQSWLYESRNKNSVA | NASQRES | QQYHRLPLS | GP_Gen | 460 pM | 6 of 6 | 0 of 18 |
| KLSQSFLMESRNKNSVA | NASTRES | QQYHRLPLS | GP_Gen | 470 pM | 6 of 6 | 1 of 18 |